Measured values taken from patent US20220362343A1, “METHOD OF REDUCING TET2 MUTANT ALLELE BURDEN” (PharmaEssentia Corporation, priority 2021, published 2022).

Legend:
Type in all cases: in vivo, human
JAK2V617F allele burden = test: JAK2V617F molecular response and allele burden, PROUD-PV/CONTINUATION-PV
Protocol: (§1) PROUD-PV was a phase III, randomized, controlled, multicenter study conducted in 47 centers across Europe to compare ropeginterferon alpha-2b to hydroxyurea in patients with polycythemia vera. CONTINUATION-PV is the ongoing extension study of PROUD-PV.
Molecular response (MR) with respect to JAK2V617F allele burden was assessed according to European LeukemiaNet criteria.
(§2) Next generation sequencing (NGS; TruSight™ Myeloid Panel, Illumina) was performed to detect non-driver mutations. All patients enrolled in CONTINUATION-PV were included in an interim efficacy analysis over 36 months by non-driver baseline mutational status.

[1] = test system: TET2 variant allele burden; test: TET2 variant allele burden by next generation sequencing, PROUD-PV/CONTINUATION-PV; conditions: TET2mut patients, baseline 32.4%
From the text: TET2 mutations can be assayed in blood samples or blood cells using methods known in the art, e.g., sequencing or PCR. TET2 mutant allele burden (%) can also be determined using methods known in the art. Allele burden represents the percentage of mutant TET2 alleles present among all TET2 alleles in blood cells, e.g., peripheral blood mononuclear cells. More specifically, a TET2 allele burden can be at least 5%, e.g., about 5%, 10%, 15%, 20%, 25%, is 30%, 35%, 40%, 45%, 50%, 55%, 60% or more.
as §1, §2

[2] = test system: patients with polycythemia vera; test: Complete hematological response (CHR), modified ELN criteria, PROUD-PV/CONTINUATION-PV
From the text: as §1
Patients with polycythemia vera diagnosed using 2008 World Health Organization criteria who were either cytoreduction-naïve or hydroxyurea pre-treated without resistance or intolerance were enrolled. In PROUD-PV, patients were randomized 1:1 to receive ropeginterferon alpha-2b or hydroxyurea for one year. Thereafter, patients could roll over into CONTINUATION-PV. Treatment arms remained as allocated in PROUD-PV, but patients in the HU arm could switch to best-available therapy (BAT). Complete hematological response (CHR) was assessed according to modified European LeukemiaNet (ELN) criteria: (1) hematocrit <45% with no phlebotomy for ≥3 months; (2) platelet count <400×10^9/L; (3) leukocyte count <10×10^9/L.
as §2

ropeginterferon alpha-2b
JAK2V617F molecular response rate (JAK2V617F allele burden; TET2mut patients, 24 months): 50.0% | JAK2V617F molecular response rate (JAK2V617F allele burden; TET2mut patients, 36 months): 50.0% | Mean JAK2V617F allele burden (JAK2V617F allele burden; TET2mut patients, during treatment, reduced from 51.3%): 31.8% | JAK2V617F molecular response rate (JAK2V617F allele burden; TET2 wt patients, 24 months): 70.7% | JAK2V617F molecular response rate (JAK2V617F allele burden; TET2 wt patients, 36 months): 68.3% | JAK2V617F molecular response rates, TET2mut versus TET2 wt patients (JAK2V617F allele burden; comparison of subgroups, P>0.05): no significant difference | absolute JAK2V617F allele burden or relative change in allele burden, TET2mut versus TET2 wt subgroups (JAK2V617F allele burden; during treatment): no significant difference | mean TET2 variant allele burden ([1]; month 12): 24.2% | mean TET2 variant allele burden ([1]; month 24, reduction p=0.047): 20.0% | mean TET2 variant allele burden ([1]; month 36 (only 3 patients with NGS data)): 17.3% | CHR achieved, % of patients ([2]; TET2mut patients (n=10), 24 months): 60.0% | CHR achieved, % of patients ([2]; TET2mut patients (n=10), 36 months): 70.0% | CHR achieved, % of patients ([2]; TET2 wt patients (n=82), 24 months): 72.0% | CHR achieved, % of patients ([2]; TET2 wt patients (n=82), 36 months): 70.7%
